The list shows a part of the results, in another mix than the full data. Activity calls are given as the source filed them.
Experiments:
[1] = compound binding in COS7 lysate, probe aLAP1, primary screen, cell lysate, small-molecule microarray (AID 1124); details: probe aLAP1, fluorescence, higher = more signal;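 also: lysate comes from COS7 cells expressing LAP1 and is applied at 0.3 µg/mL; score merges spot fluorescence near 667 nm with signal-to-noise over triplicate slides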
Sam68 (KHDRBS1) = assay: Sam68 small-molecule binders, primary screen, biochemical, small-molecule microarray, 635 nm fluorescence (AID 1125); details: small-molecule microarray binding, higher = more signal;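 also: score merges 667 nm channel intensity with signal to noise over triplicate slides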
[2] = system: Chordin-like protein 2 (CHRDL2); assay: CHRDL2 small-molecule binders, primary screen, biochemical, small-molecule microarray, 635 nm fluorescence (AID 1126); details: small-molecule microarray binding, fluorescence 635 nm; higher = more signal;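 also: printed compound slides probed with Chrdl2 protein at 4 µg/mL for 1 h at 4 C; score merges 667 nm emission intensity with signal to noise over three replicate slides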
[3] = biological target: Concanavalin-A (Canavalia ensiformis) (UniProt P02866); assay: ConA small-molecule binders, primary screen, artefact control for SMM control protein annotation, biochemical, small-molecule microarray, Alexa647 label, 635 nm (AID 1127); details: ConA-A647 binding fluorescence, higher = more signal;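 also: z combines 667 nm emission intensity with signal-to-noise across three replicate slides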
[4] = anti-His antibody binders, primary screen, artefact control for SMM control protein annotation, biochemical, small-molecule microarray, 635 nm fluorescence (AID 1128); details: anti-His Alexa647 antibody binding, higher = more signal;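 also: score merges feature fluorescence with signal-to-noise for each printed compound spot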
[5] = biological target: Focal adhesion kinase 1 (Homo sapiens) (UniProt Q05397); assay: small-molecule microarray binders of FAK, primary screen, biochemical, 635/667 nm fluorescence, BSA, DTT (AID 1130); details: PTK2 binding, 635 nm fluorescence, higher = more signal;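 also: composite of spot emission at 667 nm and signal to noise over triplicate slides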
[6] = system: Fibrinogen (Alexa647-labelled); assay: fibrinogen binders on compound microarrays, profiling panel, artefact control for SMM control-protein annotation, biochemical, small-molecule microarray, 635/667 nm fluorescence (AID 1131); details: fibrinogen-A647 binding fluorescence, higher = more signal;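 also: z-score merges 667 nm fluorescence with per-spot signal-to-noise over triplicate slides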
[7] = biological target: Follistatin (Homo sapiens) (UniProt P19883); assay: follistatin binders on small-molecule microarrays, primary screen, biochemical, small-molecule microarray, 635/667 nm fluorescence (AID 1132); details: FST binding, 635 nm fluorescence, higher = more signal
[8] = biological target: Fibroblast growth factor 2 (Homo sapiens) (UniProt P09038); assay: FGF2 binders on small-molecule microarrays, primary screen, biochemical, small-molecule microarray, 635/667 nm fluorescence (AID 1133); details: small-molecule microarray binding, FGF2, fluorescence 635/667; higher = more signal
[9] = mitochondrial membrane potential change in A549 cells, profiling panel, cell-based, JC-1 fluorescence, basal, 24 h, 100 nL (AID 1138); details: higher = more signal;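 also: A549 lung adenocarcinoma cells under basal conditions with no added stimulus; test concentration not given here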
Lefty1 = Lefty1 binders on small-molecule microarrays, primary screen, biochemical, small-molecule microarray, 635/667 nm fluorescence (AID 1139); details: small-molecule microarray binding, fluorescence 635/667; higher = more signal
[10] = system: wheat germ agglutinin (Triticum aestivum), Alexa647-labelled; assay: wheat germ agglutinin binders on compound microarrays, profiling panel, artefact control for SMM control-protein annotation, biochemical, small-molecule microarray, 635/667 nm fluorescence (AID 1140); details: WGA-A647 binding, 635 nm fluorescence, higher = more signal;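 also: score merges 667 nm feature emission with signal to noise over triplicate slides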
[11] = system: Wnt5a (protein binding on small-molecule microarray); assay: Wnt5a binders on small-molecule microarray, primary screen, biophysical, 635/667 nm fluorescence (AID 1142); details: 635 nm fluorescence, higher = more signal;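 also: fluorescence read at 667 nm with signal to noise per printed feature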
[12] = cell viability in Huh7 cells, primary screen, cytotoxicity control for HCV replication inhibitor project, CellTiter-Glo luminescence, basal, 48 h (AID 1143); details: Huh7 HCV replicon, higher = more signal, called active from +8 up or from −8 down;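 also: Huh7 hepatoma cells carrying a hepatitis C replication reporter with no stimulus; test concentration not given here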
[13] = CREB reporter modulators under forskolin, primary screen, cell-based, PC12, CRE-LacZ reporter, forskolin-stimulated (AID 1146); details: luminescence, 4.5 h, higher = more signal, called active from +8 up or from −8 down;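 also: PC12 cells with 6xCRE LacZ reporter stimulated by forskolin 10 µM; beta-galactosidase reporter signal reflecting CREB driven transcription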
[14] = biological target: Streptavidin (Streptomyces avidinii) (UniProt P22629); assay: streptavidin binders on small-molecule microarray, primary screen, artefact control for SMM compound annotation, biophysical, 635/667 nm fluorescence (AID 1147); details: streptavidin binding, higher = more signal;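 also: signal reflects streptavidin binding to arrayed compounds as a control protein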
[15] = small-molecule binders of probe aInhba, primary screen, biochemical, small-molecule microarray, 635/667 nm fluorescence (AID 1148); details: higher = more signal;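 also: score merges 667nm spot fluorescence with signal-to-noise for antibody binding to printed compounds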
Torsin-1A (Homo sapiens) [16] = biological target: Torsin-1A (Homo sapiens) (UniProt O14656); assay: torsin A binders from cell lysate, primary screen, small-molecule microarray, wild-type, 635/667 nm (AID 1149); details: COS7 hTOR1A-WT lysate, 635 nm fluorescence, higher = more signal
Torsin-1A (Homo sapiens) [17] = biological target: Torsin-1A (Homo sapiens) (UniProt O14656); assay: small-molecule binders of mutant TOR1A in lysate, primary screen, cell lysate, small-molecule microarray, COS7 lysate, 635/667 nm fluorescence (AID 1150); details: COS7 hTOR1A mutant lysate, 635 nm fluorescence, higher = more signal;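 also: score pools 667 nm emission and signal to noise measuring lysate protein binding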
[18] = system: Sonic hedgehog protein (Shh); assay: small-molecule binders of Shh protein, primary screen, biochemical, small-molecule microarray, 635/667 nm fluorescence (AID 1151); details: small-molecule microarray binding, 635 nm fluorescence; higher = more signal;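 also: Shh protein binding to compounds spotted on small-molecule microarray slides; score combines spot fluorescence intensity with signal-to-noise across triplicate slides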

Amino acid sequences for entries named in this document (tags omitted). A change or cut given only in a name is not applied to a line headed by its entry.
UniProt P02866, whole entry, looked up: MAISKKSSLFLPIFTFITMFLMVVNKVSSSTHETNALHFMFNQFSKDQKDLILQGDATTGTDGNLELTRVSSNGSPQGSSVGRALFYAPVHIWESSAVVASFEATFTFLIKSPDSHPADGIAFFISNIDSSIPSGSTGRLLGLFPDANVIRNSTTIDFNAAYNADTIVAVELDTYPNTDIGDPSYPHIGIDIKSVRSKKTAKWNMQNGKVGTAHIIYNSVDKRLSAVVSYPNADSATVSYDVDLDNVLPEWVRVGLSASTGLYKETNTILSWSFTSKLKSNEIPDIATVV
UniProt Q05397, whole entry, looked up: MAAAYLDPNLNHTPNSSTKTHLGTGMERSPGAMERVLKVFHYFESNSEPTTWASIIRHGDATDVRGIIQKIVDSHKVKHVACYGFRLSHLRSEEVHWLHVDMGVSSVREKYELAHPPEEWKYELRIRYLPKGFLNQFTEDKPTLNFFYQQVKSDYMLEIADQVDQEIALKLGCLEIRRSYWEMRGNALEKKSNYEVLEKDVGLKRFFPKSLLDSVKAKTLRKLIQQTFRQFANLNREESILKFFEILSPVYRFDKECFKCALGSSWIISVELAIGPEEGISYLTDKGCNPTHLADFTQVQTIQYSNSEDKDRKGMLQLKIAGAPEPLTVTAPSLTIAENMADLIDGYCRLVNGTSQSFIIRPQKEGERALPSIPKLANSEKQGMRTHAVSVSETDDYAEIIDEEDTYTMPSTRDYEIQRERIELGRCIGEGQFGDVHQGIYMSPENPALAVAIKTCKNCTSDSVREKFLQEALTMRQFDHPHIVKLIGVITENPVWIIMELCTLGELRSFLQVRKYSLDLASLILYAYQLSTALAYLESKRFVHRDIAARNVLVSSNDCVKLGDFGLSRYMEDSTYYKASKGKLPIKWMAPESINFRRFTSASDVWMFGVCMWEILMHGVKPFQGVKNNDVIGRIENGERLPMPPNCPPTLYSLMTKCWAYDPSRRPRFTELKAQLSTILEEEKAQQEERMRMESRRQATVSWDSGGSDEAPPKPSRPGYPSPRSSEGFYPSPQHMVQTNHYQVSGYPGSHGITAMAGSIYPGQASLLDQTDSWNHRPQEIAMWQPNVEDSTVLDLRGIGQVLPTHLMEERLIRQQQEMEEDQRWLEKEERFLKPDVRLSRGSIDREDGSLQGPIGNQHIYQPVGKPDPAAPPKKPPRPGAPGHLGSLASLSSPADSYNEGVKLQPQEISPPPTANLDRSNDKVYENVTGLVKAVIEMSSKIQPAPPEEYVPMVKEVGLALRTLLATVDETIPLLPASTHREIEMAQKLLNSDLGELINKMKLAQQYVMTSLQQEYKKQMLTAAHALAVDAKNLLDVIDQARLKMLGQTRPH
UniProt P19883: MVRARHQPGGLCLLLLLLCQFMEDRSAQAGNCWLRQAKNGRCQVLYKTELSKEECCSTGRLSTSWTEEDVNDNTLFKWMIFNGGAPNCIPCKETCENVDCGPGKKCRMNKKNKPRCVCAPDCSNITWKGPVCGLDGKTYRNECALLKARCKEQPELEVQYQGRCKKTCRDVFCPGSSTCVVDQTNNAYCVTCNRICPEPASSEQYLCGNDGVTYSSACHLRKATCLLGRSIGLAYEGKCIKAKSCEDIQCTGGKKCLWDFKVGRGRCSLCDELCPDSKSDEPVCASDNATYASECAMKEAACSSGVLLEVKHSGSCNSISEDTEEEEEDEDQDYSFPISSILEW
UniProt P09038, whole entry, looked up: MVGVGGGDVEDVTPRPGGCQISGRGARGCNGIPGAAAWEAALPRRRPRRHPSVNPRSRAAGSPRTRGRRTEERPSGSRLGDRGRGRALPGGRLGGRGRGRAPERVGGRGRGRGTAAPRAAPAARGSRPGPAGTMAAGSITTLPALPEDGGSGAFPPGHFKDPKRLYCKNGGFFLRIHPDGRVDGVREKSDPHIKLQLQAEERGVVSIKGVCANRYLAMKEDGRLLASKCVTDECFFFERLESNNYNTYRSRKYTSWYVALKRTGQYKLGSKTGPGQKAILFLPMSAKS
UniProt P22629, whole entry, looked up: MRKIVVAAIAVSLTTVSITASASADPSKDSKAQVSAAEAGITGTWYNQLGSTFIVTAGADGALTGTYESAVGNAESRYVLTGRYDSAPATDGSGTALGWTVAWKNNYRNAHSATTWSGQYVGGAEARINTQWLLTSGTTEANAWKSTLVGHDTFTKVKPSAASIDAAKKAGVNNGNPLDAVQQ
UniProt O14656: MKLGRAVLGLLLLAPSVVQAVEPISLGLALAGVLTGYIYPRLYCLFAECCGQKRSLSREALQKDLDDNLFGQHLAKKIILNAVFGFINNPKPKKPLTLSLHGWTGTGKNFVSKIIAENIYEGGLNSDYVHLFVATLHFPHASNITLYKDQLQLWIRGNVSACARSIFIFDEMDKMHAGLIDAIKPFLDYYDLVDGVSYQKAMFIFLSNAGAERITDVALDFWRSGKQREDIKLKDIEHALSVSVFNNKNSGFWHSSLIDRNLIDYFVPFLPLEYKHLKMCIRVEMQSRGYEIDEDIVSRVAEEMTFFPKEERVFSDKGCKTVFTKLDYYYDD

SMILES | composite z-score [1] | composite z-score (Sam68 (KHDRBS1)) | composite z-score [2] | composite z-score [3] | composite z-score [4] | composite z-score [5] | composite z-score [6] | composite z-score [7] | composite z-score [8] | z-score [9] | composite z-score (Lefty1) | composite z-score [10] | composite z-score [11] | z-score [12] | z-score [13] | composite z-score [14] | composite z-score [15] | composite z-score (Torsin-1A (Homo sapiens) [16]) | composite z-score (Torsin-1A (Homo sapiens) [17]) | composite z-score [18]
CN1/C(=N\P(=O)(Oc2ccccc2)Oc2ccccc2)CC(CCCO)=CC1c1ccc(CN2CCCC2)cc1 (stereo not given) | 0.959 | 0.834 | 0.345 | 1.13 | 0.69 | -0.0997 | 0.577 | 1.43 | 1.61 | -0.159 | 0.594 | 0.799 | 0.501 | inactive: -0.375 | inactive: -0.098 | 1.29 | 0.111 | 0.338 | 0.905 | 0.459
COP(=O)(/N=C1/CC(CCCO)=CC(C2CC2)N1Cc1cc2c(cc1Br)OCO2)OC (stereo not given) | 0.32 | 0.0554 | 0.288 | 0.418 | 0.997 | 0.158 | 0.469 | 1.01 | -0.0074 | -0.205 | 0.0617 | 0.652 | 0.0865 | inactive: -1.34 | inactive: 0.0116 | 1.29 | 0.0697 | 1.81 | 1.45 | 0.532
O=P(/N=C1/CC(CCCO)=CC(c2cccs2)N1Cc1cc2c(cc1Br)OCO2)(Oc1ccccc1)Oc1ccccc1 (stereo not given) | 0.92 | 1.3 | 0.0598 | 0.84 | 2.16 | 0.994 | 0.971 | 0.859 | 0.668 | 2 | 0.552 | 1.03 | 0.0756 | inactive: -1.75 | inactive: 0.59 | 2 | 0.174 | 0.354 | 0.715 | 0.142
COP(=O)(/N=C1/CC(CCCO)=CC(c2cccs2)N1C)OC (stereo not given) | 1.17 | 0.443 | -0.195 | 1.02 | 3.48 | 0.711 | 0.886 | 1.18 | 0.442 | 1.91 | 1.55 | 1.25 | 0.335 | inactive: -1.46 | inactive: -2.39 | 1.21 | 0.5 | 0.621 | 0.531 | 1.51
COP(=O)(/N=C1/CC(c2ccc(CO)cc2)=CC(c2cccs2)N1C)OC (stereo not given) | -0.0217 | -0.0011 | 0.0625 | 0.762 | 0.62 | -0.0565 | 0.341 | 1.47 | 1.13 | 1.42 | 0.919 | 0.303 | 0.143 | inactive: -0.536 | inactive: -0.58 | 0.699 | 0.317 | -0.555 | 0.153 | 0.642
COP(=O)(/N=C1/CC(c2ccc(CO)cc2)=CC(C2CC2)N1Cc1cc2c(cc1Br)OCO2)OC (stereo not given) | 0.59 | 0.125 | 0.406 | 0.686 | 0.275 | -0.186 | 0.72 | 1.28 | 0.73 | 1.39 | 0.848 | 0.126 | 0.312 | inactive: -2.61 | inactive: -1.59 | 0.758 | 0.288 | 1.65 | 0.628 | 1.27
COP(=O)(/N=C1/CC(CCCO)=CC(c2ccc(CN3CCCC3)cc2)N1Cc1sc2ccccc2c1Cl)OC (stereo not given) | 0.656 | 0.0518 | 1.13 | 0.436 | 0.535 | -0.748 | 0.358 | 1.41 | 1.81 | 2.42 | 1.7 | 0.401 | 0.413 | inactive: -1.87 | inactive: -1.62 | 0.772 | 0.767 | 0.581 | 0.95 | 1.64
O=P(/N=C1/CC(c2ccc(CO)cc2)=CC(C2CC2)N1Cc1cc2c(cc1Br)OCO2)(Oc1ccccc1)Oc1ccccc1 (stereo not given) | 0.601 | 1.32 | 0.356 | 1.18 | 3.29 | 0.0371 | 1.02 | 1.2 | 1.1 | 1.6 | 0.168 | 1.21 | 0.652 | inactive: -4 | inactive: -0.0864 | 1.93 | 0.0442 | 0.191 | 1.63 | 0.111
COP(=O)(/N=C1/CC(CCCO)=CC(C)N1Cc1cccc(OC(F)(F)F)c1)OC (stereo not given) | 0.353 | 0.286 | 0.0669 | 0.447 | 0.159 | 0.281 | 0.558 | 0.697 | 0.246 | 1.51 | 0.0739 | 0.648 | 0.0808 | inactive: -1.33 | inactive: -0.645 | 0.854 | 0.397 | 0.674 | 1.2 | 0.418

— PubChem BioAssay
